Biological target: GLP1R (UniProt P43220)
Assay: cell-based or functional assay

Ex4-Cys40-FA1 (peptide)
Activity: 0.14 nM
